ChEMBL document CHEMBL5143532, “Discovery of GCC5694A: A potent and selective sodium glucose co-transporter 2 inhibitor for the treatment of type 2 diabetes” (Bioorg Med Chem Lett, 2022)

Assay: Selectivity index, ratio of IC50 for human SGLT1 expressed in CHO cells to IC50 for human SGLT2 expressed in CHO cells
Type: cell-based

`COc1ccc(Cc2cc([C@@H]3O[C@H](CO)[C@@H](O)[C@H](O)[C@H]3O)c3c(c2Cl)CCC3)cc1` gave a Ratio IC50 of 55.
With `CC(C)c1ccc(Cc2cc([C@@H]3O[C@H](CO)[C@@H](O)[C@H](O)[C@H]3O)c3c(c2Cl)OCC3)cc1` the Ratio IC50 was 6250.
For `COc1ccc(Cc2cc([C@@H]3O[C@H](CO)[C@@H](O)[C@H](O)[C@H]3O)c3c(c2Cl)OCCC3)cc1`, the Ratio IC50 was 37.
